Laboratory results taken from patent publication US20220153822A1 (ALYTAS THERAPEUTICS, published 2022).

T1: Perilipin epitope 6 peptide EVRVPWLHSLAAAQE (SEQ ID NO. 333) (human, Biotin-PEG Spacer and GGSGGS Linker (SEQ ID NO. 438) at the N-terminus, or Biotin-PEG Spacer and AAAAA Linker (SEQ ID NO. 439) at the C-terminus)
T1 construct: Two biotinylated variants were used for selection and ELISA; On the peptide array it stood without biotin; also called target peptide
T1 peptide: EVRVPWLHSLAAAQE


Biological target: T1, Perilipin epitope 6 peptide …
Assay: phage display selection and ELISA on biotinylated target peptide

binding result	Binder
binds	Antibody No. 58 (antibody, V domains shown, human IgG1, lambda or kappa light chain; also called 447-B12) VH: QVQLVQSGAEVKKPGASVKVSCKASGYTFTSYYMHWVRQAPGQGLEWMGIINPSGGSTSYAQKFQGRVTMTRDTSTSTVYMELSSLRSEDTAVYYCARSRGGSAFDIWGQGTLVTVSS VL: not shown
binds	Antibody No. 50 (antibody, V domains shown, human IgG1, lambda or kappa light chain; also called 448-D05) VH: QVQLVESGGGVVQPGRSLRLSCAASGFTFSSYAMHWVRQAPGKGLEWVAVISYDGSNKYYADSVKGRFTISRDNSKNTLYLQMNSLRAEDTAVYYCARSGSYFGFDYWGQGTLVTVSS VL: not shown
